The values that follow come from ChEMBL document CHEMBL1128444 (J Med Chem, 1995).

By UniProt entry, the sequences of proteins in these tests, tags left out.
UniProt P23977, whole entry: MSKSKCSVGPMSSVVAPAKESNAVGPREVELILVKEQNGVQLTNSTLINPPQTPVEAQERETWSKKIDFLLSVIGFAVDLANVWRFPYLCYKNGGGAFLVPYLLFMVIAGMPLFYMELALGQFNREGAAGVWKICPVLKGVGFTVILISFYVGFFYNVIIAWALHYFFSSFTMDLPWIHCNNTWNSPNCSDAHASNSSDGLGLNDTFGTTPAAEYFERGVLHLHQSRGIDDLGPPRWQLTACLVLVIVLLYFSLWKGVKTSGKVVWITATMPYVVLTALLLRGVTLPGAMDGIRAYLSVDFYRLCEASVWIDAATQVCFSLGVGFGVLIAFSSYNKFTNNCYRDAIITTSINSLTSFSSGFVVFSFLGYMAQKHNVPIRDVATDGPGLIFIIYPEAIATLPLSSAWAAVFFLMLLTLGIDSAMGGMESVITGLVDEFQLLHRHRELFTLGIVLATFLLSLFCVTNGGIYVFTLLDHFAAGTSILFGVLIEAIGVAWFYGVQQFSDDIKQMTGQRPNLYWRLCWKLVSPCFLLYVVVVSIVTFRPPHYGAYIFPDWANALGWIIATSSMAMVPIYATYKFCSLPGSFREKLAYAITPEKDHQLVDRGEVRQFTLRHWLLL
UniProt Q9WTR4, whole entry: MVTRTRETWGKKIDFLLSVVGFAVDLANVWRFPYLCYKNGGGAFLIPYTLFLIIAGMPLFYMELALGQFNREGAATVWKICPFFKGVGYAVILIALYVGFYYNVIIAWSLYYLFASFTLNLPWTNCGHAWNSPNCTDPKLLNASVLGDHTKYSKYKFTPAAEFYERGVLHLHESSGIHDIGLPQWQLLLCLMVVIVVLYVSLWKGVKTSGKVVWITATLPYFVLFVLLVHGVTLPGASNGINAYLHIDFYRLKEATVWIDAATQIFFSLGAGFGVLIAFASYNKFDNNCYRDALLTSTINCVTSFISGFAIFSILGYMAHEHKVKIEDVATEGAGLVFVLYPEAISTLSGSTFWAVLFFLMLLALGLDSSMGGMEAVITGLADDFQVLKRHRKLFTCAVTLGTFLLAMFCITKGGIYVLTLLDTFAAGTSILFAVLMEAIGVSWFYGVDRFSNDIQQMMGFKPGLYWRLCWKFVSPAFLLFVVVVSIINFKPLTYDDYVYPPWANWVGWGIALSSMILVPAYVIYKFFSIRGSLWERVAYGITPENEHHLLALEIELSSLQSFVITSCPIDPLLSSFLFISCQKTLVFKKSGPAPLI

The target of assay [1] is Sodium-dependent dopamine transporter (Rattus norvegicus, UniProt P23977). The assay is described as follows: Binding affinity at the Dopamine transporter in rat striata by inhibition of 0.5 nM [3H]WIN-35428 binding.
For assay [2], the target named is Norepinephrine transporter (Rattus norvegicus, UniProt Q9WTR4). The assay is described as follows: Inhibition of [3H]NE uptake by rat frontal cortex Norepinephrine transporter. The assay is classed as tissue-based. A digest of the protocol: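 Rat frontal cortex synaptosomes were used at 10 mg/mL tissue with 5 nM final [3H]norepinephrine and 10 μM pargyline in Krebs phosphate buffer, pH 7.4. Incubation was 3 min at 30 °C, followed by filtration and scintillation counting. Nonspecific uptake was defined with 1 μM desipramine. Three or four experiments were run in triplicate, and Ki was derived by Cheng–Prusoff.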

As usually defined, the IC50 is the concentration that inhibits the measured activity by half. Read a low IC50 as greater potency in that assay. One may read the Ki as the equilibrium dissociation constant of an inhibitor or competing ligand from its target. A high value points to a looser hold on the target.

Molecules are shown by their SMILES.

Regarding `COC(=O)C1C(c2ccc(Cl)cc2)CC2CCC1N2C` (configuration not stated), the IC50 in assay [1] was 1.12 nM.

In assay [2], `COC(=O)[C@H]1[C@@H](OC(=O)c2ccccc2)C[C@@H]2CC[C@H]1N2C` [COCAINE] showed a Ki of 161 nM.
